# Literature values as cited in patent US20090233840A1, “Modified Dynorphin Expression in Animals and Identification of Compounds for Treatment of Obesity and Diabetes” (priority 2004, published 2009).
# Amino acid sequences for entries named in this document (tags omitted).
# UniProt P41143, whole entry: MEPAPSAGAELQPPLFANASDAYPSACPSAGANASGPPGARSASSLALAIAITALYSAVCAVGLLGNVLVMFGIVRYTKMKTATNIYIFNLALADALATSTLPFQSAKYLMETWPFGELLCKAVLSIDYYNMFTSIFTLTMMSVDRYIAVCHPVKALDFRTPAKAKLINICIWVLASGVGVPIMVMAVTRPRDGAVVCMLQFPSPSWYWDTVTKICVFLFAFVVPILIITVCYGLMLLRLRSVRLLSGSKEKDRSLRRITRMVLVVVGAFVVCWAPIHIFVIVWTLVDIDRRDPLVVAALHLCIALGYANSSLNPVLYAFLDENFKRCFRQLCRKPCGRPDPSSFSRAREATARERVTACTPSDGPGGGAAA
# UniProt P35372, whole entry: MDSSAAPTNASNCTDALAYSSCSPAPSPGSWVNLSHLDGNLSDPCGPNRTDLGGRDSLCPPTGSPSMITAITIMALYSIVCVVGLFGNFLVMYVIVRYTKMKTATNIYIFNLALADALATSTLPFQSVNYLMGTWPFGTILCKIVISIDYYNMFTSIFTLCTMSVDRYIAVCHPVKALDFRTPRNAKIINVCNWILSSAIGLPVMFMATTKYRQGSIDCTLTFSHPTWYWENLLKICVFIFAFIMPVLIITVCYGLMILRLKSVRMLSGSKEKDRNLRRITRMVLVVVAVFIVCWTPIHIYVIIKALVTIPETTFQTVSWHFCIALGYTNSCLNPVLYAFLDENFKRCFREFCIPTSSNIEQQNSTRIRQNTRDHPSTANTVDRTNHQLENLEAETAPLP
# What was measured:
# human DOR-1 = human DOR-1 (Homo sapiens, UniProt P41143); settings: DOR-1 receptor
# hMOR-1 [1] = biological target: T1, hMOR-1 (Homo sapiens, UniProt P35372); settings: read-out: calculated EC50, K+ current; Xenopus oocytes, hMOR-1 + GIRK1; mean ±S.E., n=2-3
# hMOR-1 [2] = biological target: T1, hMOR-1; settings: human MOR-1 receptor
Substance,affinity compared to dynorphin A (human DOR-1),EC50 (hMOR-1 [1]),affinity values (hMOR-1 [2])
dynorphin A-(1-8),relatively higher affinity,,
dynorphin A,,30 ± 5 nM,nanomolar range
